Measured values as given in PMC3030271 (ACS medicinal chemistry letters, 2010).

Target: hA2AAR (Homo sapiens, UniProt P29274)
Test: Radioligand binding at hA2AAR
Details: binding affinity; HEK-293 cells expressing hA2AAR

Ki at the hA2AAR: only weakly bound
SMILES: O[C@@H]1[C@H](O)CS[C@H]1n1cnc2c(NCc3cccc(Cl)c3)nc(Cl)nc21 [Compound 3]
